The values below come from patent US20050171023A1, “Caspase inhibitors for the treatment of diseases and conditions caused by exposure to radionuclides, biological agents, or chemical agents” (published 2005).

The subject of the assay is ICR Mice (CD-1). As to the kind of experiment: Protection of mice from death caused by exposure to gamma radiation (Example 1, Experiment B). To be noted: for Dead/Total animals: data at day 25.

On to Cbz-Val-Asp-CH2F, for which the “animals protected from death caused by exposure to radiation” value (850 Rad gamma radiation, single IV administration of 20 mg/kg) is given as “about 38%” and the “animals protected from death caused by exposure to radiation” value (850 Rad gamma radiation, single IV administration of 50 mg/kg) was “about 38%”. Moreover, the Dead/Total animals is listed as 8/8 (850 Rad gamma radiation, single IV injection 10 mg/kg 10 min following irradiation); 5/8 (850 Rad gamma radiation, single IV injection 20 mg/kg 10 min following irradiation); 5/8 (850 Rad gamma radiation, single IV injection 50 mg/kg 10 min following irradiation); 8/8 (950 Rad gamma radiation, single IV injection 10 mg/kg 10 min following irradiation); 8/8 (950 Rad gamma radiation, single IV injection 20 mg/kg 10 min following irradiation); 8/8 (950 Rad gamma radiation, single IV injection 50 mg/kg 10 min following irradiation). For the same substance, under “950 Rad gamma radiation, 10, 20 or 50 mg/kg IV, all animals died”, the “effectiveness in protecting mice from death with higher dose of radiation” value is “not effective”.
